Legend:
PI3K-γ (p110γ) = PI3K-γ (p110γ) (Homo sapiens (Human), UniProt P48736); assay: Fluorescent determination of PI3K enzyme activity (Transcreener KINASE Assay), PI3K-γ; assay type: biochemical;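 further: p110γ enzyme reaction for 80 min at room temperature, ADP formed measured by far-red competitive fluorescence polarization immunoassay, inhibition relative to wells with 2% DMSO only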
[1] = test system: PI3Kδ signaling in basophils from human whole blood; assay: Inhibition of PI3Kδ signaling in basophils from human whole blood; assay type: cell-based; details: anti-IgE stimulated, CD63
PI3K-δ (p110δ/p85α) = PI3K-δ (p110δ/p85α) (Homo sapiens (Human), UniProt O00329); assay: Fluorescent determination of PI3K enzyme activity (Transcreener KINASE Assay), PI3K-δ; assay type: biochemical

By UniProt entry, the sequences of proteins in these tests, tags left out. Where a name states a change or a piece, a line headed by the entry shows the natural chain unless it says otherwise.
UniProt P48736, whole entry, species assumed: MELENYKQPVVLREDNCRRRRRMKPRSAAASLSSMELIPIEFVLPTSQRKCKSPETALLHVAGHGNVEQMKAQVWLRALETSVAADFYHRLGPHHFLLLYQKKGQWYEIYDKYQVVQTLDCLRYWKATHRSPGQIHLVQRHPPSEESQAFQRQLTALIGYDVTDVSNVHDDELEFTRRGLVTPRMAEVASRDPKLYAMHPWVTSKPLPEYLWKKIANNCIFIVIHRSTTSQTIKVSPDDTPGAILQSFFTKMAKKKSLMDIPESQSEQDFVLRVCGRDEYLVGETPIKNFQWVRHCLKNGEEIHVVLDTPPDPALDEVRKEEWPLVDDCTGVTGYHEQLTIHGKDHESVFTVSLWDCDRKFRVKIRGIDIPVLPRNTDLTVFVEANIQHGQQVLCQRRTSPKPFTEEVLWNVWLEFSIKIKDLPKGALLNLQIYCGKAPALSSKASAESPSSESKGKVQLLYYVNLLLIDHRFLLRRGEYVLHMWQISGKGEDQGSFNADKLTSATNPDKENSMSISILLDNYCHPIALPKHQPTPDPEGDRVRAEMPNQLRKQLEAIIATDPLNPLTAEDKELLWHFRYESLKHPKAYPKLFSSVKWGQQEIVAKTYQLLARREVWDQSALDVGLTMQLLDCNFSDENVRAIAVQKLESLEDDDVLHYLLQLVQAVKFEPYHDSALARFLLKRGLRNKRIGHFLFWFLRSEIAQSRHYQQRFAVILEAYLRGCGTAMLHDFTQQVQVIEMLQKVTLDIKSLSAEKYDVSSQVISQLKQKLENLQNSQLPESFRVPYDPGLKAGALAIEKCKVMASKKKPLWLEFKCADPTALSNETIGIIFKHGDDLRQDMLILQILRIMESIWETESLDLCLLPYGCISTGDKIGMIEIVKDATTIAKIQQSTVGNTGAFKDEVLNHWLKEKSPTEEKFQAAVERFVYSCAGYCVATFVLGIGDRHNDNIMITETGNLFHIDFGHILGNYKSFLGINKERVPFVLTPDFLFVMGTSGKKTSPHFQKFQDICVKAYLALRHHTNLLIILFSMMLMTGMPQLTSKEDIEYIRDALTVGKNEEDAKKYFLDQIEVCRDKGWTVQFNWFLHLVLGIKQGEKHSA
UniProt O00329, whole entry, species assumed: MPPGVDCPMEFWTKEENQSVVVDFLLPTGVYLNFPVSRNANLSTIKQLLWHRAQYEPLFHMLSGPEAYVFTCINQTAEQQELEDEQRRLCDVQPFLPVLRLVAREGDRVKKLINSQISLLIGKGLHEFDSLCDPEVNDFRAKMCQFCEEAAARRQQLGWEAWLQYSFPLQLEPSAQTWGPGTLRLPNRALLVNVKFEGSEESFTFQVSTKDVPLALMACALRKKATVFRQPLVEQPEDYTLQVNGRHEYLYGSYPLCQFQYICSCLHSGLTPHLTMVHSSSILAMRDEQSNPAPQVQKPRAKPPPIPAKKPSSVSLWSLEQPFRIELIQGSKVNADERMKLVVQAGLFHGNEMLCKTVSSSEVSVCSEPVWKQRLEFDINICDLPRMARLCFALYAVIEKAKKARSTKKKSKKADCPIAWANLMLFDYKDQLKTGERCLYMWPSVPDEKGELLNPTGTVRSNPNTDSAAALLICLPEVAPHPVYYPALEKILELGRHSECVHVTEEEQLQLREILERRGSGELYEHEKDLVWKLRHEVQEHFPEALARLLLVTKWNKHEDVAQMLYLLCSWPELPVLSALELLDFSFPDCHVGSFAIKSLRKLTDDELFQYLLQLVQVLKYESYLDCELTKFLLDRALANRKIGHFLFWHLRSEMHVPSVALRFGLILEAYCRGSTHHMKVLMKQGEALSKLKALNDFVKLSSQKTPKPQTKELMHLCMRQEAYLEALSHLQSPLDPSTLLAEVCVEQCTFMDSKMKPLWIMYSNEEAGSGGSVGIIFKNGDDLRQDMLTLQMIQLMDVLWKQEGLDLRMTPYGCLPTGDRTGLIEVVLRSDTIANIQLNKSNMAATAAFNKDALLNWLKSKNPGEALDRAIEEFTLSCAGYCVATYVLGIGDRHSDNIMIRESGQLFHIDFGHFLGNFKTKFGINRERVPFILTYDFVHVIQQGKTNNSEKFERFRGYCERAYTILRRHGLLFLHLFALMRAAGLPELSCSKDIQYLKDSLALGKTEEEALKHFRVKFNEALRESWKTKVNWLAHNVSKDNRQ

## C[C@H](Nc1ncnc(N)c1C#N)c1cc2ncc(F)n2nc1-c1ccccc1 [Compound 78, (S)-4-amino-6-((1-(3-fluoro-6-phenylimidazo[1,2-b]pyridazin-7-yl)ethyl)amino)pyrimidine-5-carbonitrile]
PI3K-γ (p110γ)
  IC50: 712 nM

## C[C@H](Nc1ncnc(N)c1C#N)c1cc2ncc(Cl)n2nc1-c1ccccc1 [Compound 4, (S)-4-amino-6-((1-(3-chloro-6-phenylimidazo[1,2-b]pyridazin-7-yl)ethyl)amino)pyrimidine-5-carbonitrile]
[1]
  IC50: 1 nM

## [2H]c1c([2H])c([2H])c(-c2nn3c(Cl)cnc3cc2[C@H](C)Nc2ncnc(N)c2C#N)c([2H])c1[2H] [Compound 80]
PI3K-δ (p110δ/p85α)
  IC50: 0.5 nM

From US10611777B2, “Imidazopyridazine compounds and their use” (HUTCHISON MEDIPHARMA LIMITED, priority 2014, dated 2020)
